By inhibition is commonly meant the share of the control response that was lost under treatment.

The chains behind the UniProt entries cited, without tags or fusion partners.
UniProt P49327, whole entry: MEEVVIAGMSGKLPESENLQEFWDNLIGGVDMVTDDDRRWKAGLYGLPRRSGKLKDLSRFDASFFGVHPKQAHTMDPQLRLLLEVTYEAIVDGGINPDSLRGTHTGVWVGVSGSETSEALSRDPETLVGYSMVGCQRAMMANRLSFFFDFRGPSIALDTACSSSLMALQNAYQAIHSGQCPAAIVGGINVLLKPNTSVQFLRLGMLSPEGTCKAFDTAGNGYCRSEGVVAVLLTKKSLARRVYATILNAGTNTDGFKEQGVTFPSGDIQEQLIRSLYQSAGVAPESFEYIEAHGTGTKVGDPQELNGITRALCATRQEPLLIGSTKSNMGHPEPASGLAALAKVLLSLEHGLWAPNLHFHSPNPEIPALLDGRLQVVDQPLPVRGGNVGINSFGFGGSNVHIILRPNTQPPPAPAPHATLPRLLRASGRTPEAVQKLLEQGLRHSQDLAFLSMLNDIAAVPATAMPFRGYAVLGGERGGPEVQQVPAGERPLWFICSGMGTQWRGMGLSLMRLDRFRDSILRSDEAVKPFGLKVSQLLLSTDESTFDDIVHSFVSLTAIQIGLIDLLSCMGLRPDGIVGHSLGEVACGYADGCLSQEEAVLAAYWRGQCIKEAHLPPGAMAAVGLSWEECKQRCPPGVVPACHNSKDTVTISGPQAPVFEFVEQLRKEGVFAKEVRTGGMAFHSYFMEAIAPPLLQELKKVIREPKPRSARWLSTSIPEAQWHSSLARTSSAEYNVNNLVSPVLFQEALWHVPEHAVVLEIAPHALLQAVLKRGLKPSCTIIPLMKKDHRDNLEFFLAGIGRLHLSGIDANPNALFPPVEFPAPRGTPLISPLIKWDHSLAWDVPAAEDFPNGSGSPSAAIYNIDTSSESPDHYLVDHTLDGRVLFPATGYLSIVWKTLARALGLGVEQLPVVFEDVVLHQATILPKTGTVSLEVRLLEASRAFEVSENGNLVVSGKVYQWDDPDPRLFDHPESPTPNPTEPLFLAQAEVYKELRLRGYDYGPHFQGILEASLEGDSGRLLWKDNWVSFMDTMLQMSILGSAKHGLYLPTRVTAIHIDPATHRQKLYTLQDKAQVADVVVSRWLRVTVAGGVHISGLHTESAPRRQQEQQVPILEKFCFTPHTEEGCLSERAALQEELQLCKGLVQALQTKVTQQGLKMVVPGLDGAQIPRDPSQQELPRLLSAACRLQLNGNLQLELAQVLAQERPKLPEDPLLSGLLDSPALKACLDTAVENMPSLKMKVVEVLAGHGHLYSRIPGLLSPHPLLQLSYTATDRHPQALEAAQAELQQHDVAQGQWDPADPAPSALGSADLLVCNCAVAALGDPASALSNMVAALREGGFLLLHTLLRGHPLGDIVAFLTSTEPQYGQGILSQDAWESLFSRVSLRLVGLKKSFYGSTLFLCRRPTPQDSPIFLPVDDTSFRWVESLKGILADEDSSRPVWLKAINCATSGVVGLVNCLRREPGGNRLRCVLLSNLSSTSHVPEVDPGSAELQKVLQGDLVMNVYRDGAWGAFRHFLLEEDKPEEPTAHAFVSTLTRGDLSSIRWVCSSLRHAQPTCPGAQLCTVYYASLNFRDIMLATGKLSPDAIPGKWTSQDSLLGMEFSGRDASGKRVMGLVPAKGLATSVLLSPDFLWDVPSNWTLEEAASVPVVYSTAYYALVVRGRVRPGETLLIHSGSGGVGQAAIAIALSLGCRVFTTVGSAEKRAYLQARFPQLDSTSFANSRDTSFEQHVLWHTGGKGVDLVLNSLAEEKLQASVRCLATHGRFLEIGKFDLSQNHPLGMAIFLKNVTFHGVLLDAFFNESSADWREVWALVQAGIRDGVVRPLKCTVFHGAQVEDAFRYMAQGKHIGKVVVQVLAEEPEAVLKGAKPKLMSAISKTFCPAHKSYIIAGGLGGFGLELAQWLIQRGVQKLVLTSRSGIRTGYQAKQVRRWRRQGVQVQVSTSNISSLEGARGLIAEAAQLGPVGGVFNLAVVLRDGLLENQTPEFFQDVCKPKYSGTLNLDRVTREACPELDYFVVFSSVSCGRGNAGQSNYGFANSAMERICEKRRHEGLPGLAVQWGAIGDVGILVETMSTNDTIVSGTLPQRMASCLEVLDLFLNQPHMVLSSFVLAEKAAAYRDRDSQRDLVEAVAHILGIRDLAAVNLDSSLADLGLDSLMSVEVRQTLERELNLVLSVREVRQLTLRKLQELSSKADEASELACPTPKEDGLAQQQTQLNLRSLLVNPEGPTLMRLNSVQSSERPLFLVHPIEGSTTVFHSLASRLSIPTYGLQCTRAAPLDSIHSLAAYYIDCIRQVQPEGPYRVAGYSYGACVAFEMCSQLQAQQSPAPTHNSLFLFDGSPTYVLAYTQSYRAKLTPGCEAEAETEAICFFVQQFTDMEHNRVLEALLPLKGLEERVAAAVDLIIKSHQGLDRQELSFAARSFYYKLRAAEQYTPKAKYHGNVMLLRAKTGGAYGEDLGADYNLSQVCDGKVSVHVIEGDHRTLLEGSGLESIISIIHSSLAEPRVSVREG

This is a selection; strong and weak results do not stand in their true shares. Activity calls are given as the source filed them.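 The calls were made as follows: active = compounds inhibiting the enzyme by at least 50% at 15 µM in any one of the replicates; inactive = the rest.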

For the assay, the target named is Fatty acid synthase (Homo sapiens) (UniProt P49327). The experiment in a line: inhibition of human FAS-TE enzyme activity – biochemical, fluorescence intensity, single concentration, confirmation (AID 624325).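 Also: 0% = enzyme with DMSO only and 100% = wells lacking enzyme.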 To be noted: recombinant FAS-TE, OMFH fluorogenic substrate, at 15 µM, active compounds read high.
As for `CP(=O)(Nc1ccc(SC(F)(F)F)cc1)Oc1ccc(Cl)cc1` (stereo unspecified), the inhibition is inactive: 7.93%.
